Laboratory results taken from PubChem BioAssay AID1481 (The Scripps Research Institute Molecular Screening Center, 2009).
The entries are a selection whose mix differs from that of the whole data set. The source made the active and inactive calls. No stated cut-off is given here; in the data, active means inhibition above about 15%; inactive means the rest.

Sequences of proteins named here, by UniProt entry; tags and fusion partners are left off.
UniProt P55072, whole entry: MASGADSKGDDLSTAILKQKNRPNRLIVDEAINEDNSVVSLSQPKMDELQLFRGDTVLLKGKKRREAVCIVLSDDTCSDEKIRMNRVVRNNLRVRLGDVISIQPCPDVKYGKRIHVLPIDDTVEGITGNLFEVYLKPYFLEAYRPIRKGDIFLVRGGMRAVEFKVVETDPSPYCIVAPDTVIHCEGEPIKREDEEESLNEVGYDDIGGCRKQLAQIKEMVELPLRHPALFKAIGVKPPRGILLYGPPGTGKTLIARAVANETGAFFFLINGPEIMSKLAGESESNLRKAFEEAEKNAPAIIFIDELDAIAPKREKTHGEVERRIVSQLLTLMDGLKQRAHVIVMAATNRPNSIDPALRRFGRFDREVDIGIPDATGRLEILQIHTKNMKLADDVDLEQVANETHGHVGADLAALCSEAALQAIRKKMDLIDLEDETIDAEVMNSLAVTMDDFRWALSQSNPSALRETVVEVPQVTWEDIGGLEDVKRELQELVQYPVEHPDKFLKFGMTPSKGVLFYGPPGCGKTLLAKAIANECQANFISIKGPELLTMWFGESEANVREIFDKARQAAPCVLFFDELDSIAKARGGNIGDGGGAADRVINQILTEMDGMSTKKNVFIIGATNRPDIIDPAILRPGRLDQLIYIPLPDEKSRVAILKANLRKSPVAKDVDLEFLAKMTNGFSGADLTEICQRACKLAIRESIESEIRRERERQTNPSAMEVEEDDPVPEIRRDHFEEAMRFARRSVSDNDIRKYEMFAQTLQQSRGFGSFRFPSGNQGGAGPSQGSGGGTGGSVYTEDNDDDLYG

Target: Transitional endoplasmic reticulum ATPase (Homo sapiens) (UniProt P55072)
Assay: p97 ATP hydrolysis blockers – biochemical, primary screen (AID 1481);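 further: 0% = DMSO vehicle and 100% = wells lacking enzyme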
Conditions: recombinant p97 ATPase, Kinase-Glo ATP luminescence, 3 h; at 8 µM; hits give high values

Row | SMILES | inhibition
1 | CN(C)C(=O)c1c([N+](=O)[O-])cc([N+](=O)[O-])cc1[N+](=O)[O-] | inactive: 10.2%
2 | CP(=O)(Nc1ccc(SC(F)(F)F)cc1)Oc1ccc(F)cc1 (stereo not given) | inactive: 1.5%
3 | CCOP(C)(=S)SCC(=O)NC(C)(CC)C(=O)O (stereo not given) | inactive: 1.62%
4 | CP(=O)(Nc1ccc2c(c1)OCCO2)Oc1ccccc1 (stereo not given) | inactive: -5.46%
5 | Cc1ccccc1NP(C)(=O)Nc1ccccc1C | inactive: 1.01%
6 | COc1ccc(OP(C)(=O)Nc2cccc(Br)c2)cc1 (stereo not given) | inactive: 1.27%
7 | CN(C)CCOC(=O)C(O)(c1ccccc1)C1CCCCC1 (stereo not given) | inactive: -4.31%
8 | COc1ccc(NP(C)(=O)Oc2ccccc2OC)cc1 (stereo not given) | inactive: -2.04%
9 | O=[N+]([O-])c1ccc(OP2(=O)COCCO2)cc1 (stereo not given) | inactive: 3.25%
10 | Cc1cc(-c2cccc3ccccc23)c(C)cn1.O=[N+]([O-])c1cc([N+](=O)[O-])c(O)c([N+](=O)[O-])c1 | inactive: 6.94%
11 | O=[N+]([O-])c1cc([N+](=O)[O-])c(NCC2CCS(=O)(=O)C2)c([N+](=O)[O-])c1 (stereo not given) | inactive: 5.99%
12 | CCOC(=O)c1ccc(NP(C)(=O)Oc2ccc(F)cc2)cc1 (stereo not given) | inactive: -7.06%
13 | COc1ccc(OP(C)(=O)Nc2ccc(SC(F)(F)F)cc2)cc1 (stereo not given) | inactive: 2.58%
14 | CCN(CC)CCCOC(=O)C(O)(c1ccccc1)C1CCCCC1 (stereo not given) | inactive: -4.04%
15 | CP(=O)(Nc1ccccc1)Oc1ccc(F)cc1 (stereo not given) | inactive: 0.54%
16 | CCCCCOc1ccc(NP(C)(=O)Oc2ccc(Cl)cc2Cl)cc1 (stereo not given) | inactive: -5.95%
17 | CP(=O)(Nc1ccccc1F)Oc1ccccc1 (stereo not given) | inactive: 4.73%
18 | CC(C)c1ccc(OP(C)(=O)Nc2ccc(SC(F)(F)F)cc2)cc1 (stereo not given) | inactive: 2.86%
19 | O=C(OC1CN2CCC1CC2)c1ccc([N+](=O)[O-])cc1 (stereo not given) | inactive: -0.16%
20 | O=C(OCCN1CCN(CCOCc2ccccc2)CC1)C(O)(c1ccccc1)c1ccccc1 | inactive: 0.73%
